What all share (assay type): functional
Assay [1] is filed under the species Mus musculus. In words: Compound was evaluated for low level mutagenicity.
The species entered for assay [2] is Mus musculus. Description: Compound was evaluated for mutagenicity after threshold range.
The species entered for assay [3] is Mus musculus. Description: Compound was evaluated for Carcinogenicity to produce 0.5 tumors per mouse (B.5).

With `ClCCN(CCCl)c1ccc(Cl)cc1`, the Log 1/B+100 in the assay listed under Mus musculus [1] amounted to 1.02. This compound also showed a Log 1/Th+200 in the assay filed under Mus musculus [2] of 1.83.

Take `Nc1cc(N)cc(N(CCCl)CCCl)c1`: the Log 1/B.5 in the assay filed under Mus musculus [3] was determined as 5.41. In the assay listed under Mus musculus [1], this compound displayed a Log 1/B+100 of 0.85. In the assay filed under Mus musculus [2], this compound gave a Log 1/Th+200 of 0.31.

With `NS(=O)(=O)c1ccc(N(CCCl)CCCl)cc1`, in the assay filed under Mus musculus [3], the Log 1/B.5 was 3.44. The compound further displayed a Log 1/B+100 in the assay filed under Mus musculus [1] of 0.52. This compound also yielded a Log 1/Th+200 in the assay listed under Mus musculus [2] of 0.87.

Compound `COc1ccc(N(CCCl)CCCl)cc1` returned a Log 1/B.5 in the assay filed under Mus musculus [3] of 4.64. Also, the Log 1/B+100 in the assay listed under Mus musculus [1] is 1.33.

For the compound `CCCCc1ccc(N(CCCl)CCCl)cc1`, the Log 1/B.5 in the assay filed under Mus musculus [3] is 3.59. This compound also gave a Log 1/Th+200 in the assay filed under Mus musculus [2] of 1.59.

Source of the values: ChEMBL document CHEMBL1121662 (1981).
